This note sets out measurements from PubChem BioAssay AID493131 (Broad Institute, 2011).

Protein sequences, listed by entry. Tags and fused reporters are not part of them.
UniProt P13346, whole entry: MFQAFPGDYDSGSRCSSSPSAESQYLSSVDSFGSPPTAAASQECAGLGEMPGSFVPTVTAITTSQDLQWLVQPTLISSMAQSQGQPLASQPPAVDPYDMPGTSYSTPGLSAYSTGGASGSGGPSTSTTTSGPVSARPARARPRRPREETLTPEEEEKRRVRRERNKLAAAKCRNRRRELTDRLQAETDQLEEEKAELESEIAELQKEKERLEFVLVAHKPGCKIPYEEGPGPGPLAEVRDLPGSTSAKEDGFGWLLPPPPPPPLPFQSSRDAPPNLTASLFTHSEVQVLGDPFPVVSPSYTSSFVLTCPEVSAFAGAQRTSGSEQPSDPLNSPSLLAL

The entries are a selection whose mix differs from that of the whole data set. Activity calls are given as the source filed them.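 The calls were made as follows: active = mean activation above about 17%, with every replicate also reaching it (limit read from the data, passing the limit was not always enough); inconclusive = only one of the two conditions met; inactive = the rest.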

The target of the test is Protein FosB (Mus musculus) (UniProt P13346). Put plainly: activators of delta FosB homodimer, primary screen, biochemical, fluorescence polarization, TAMRA-CDK5 oligo, single point (AID 493131).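 Also: fluorescence polarization rise as delta FosB binds a TAMRA Cdk5 AP-1 oligo.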 The following applies: purified delta FosB, at 25 µM, active compounds read high, percent of positive-control signal above neutral wells.
Take `CCC(=O)N(c1ccccc1)C1(COC)CCN(CCc2cccs2)CC1`: the activation was inactive: -2.16%.
Regarding `CCC(=O)N(c1ccccc1)C1(COC)CCN(CCn2nnn(CC)c2=O)CC1`, the activation is inactive: -2.13%.
